Data published in paper PMC10278071 (ACS Chemical Biology, 2023).

Molecular target: catalytic domain of human DNMT3A ([…]) (human)
Assay: SEC-MALS

B1: catalytic-like domain of DNMT3L (residues 179–379) (domain or fragment, human, UniProt Q9UJW3 179-379, looked up)
chain: FETVPVWRRQPVRVLSLFEDIKKELTSLGFLESGSDPGQLKHVVDVTDTVRKDVEEWGPFDLVYGATPPLGHTCDRPPSWYLFQFHRLLQYARPKPGSPRPFFWMFVDNLVLNKEDLDVASRFLEMEPVTIPDVHGGSLQNAVRVWSNIPAIRSRHWALVSEEELSLLAQNKQSSKLAAKWPTKLVKNCFLPLREYFKYFS
binding result: binds
